One molecule from US20230416203A1, “POTENT AND SELECTIVE INHIBITORS OF THE CALCIUM-ACTIVATED POTASSIUM CHANNEL, KCA3.1, FOR USE AS PLATFORM THERAPEUTICS” (priority 2020, published 2023) can be followed below.

Protein sequences, listed by entry. Tags and fused reporters are not part of them.
UniProt O15554, whole entry: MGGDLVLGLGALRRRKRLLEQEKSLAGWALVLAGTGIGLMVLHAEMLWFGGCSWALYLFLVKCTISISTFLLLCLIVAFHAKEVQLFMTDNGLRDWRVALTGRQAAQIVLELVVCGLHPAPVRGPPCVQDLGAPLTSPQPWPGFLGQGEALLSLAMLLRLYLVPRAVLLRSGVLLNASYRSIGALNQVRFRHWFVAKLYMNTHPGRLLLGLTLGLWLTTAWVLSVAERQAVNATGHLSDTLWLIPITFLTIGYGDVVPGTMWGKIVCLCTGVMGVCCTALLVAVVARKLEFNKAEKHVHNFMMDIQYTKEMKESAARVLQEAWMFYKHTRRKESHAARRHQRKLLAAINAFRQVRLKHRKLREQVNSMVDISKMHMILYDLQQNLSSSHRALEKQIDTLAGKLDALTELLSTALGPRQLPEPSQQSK

What is called IC50 is the concentration needed to halve the response being measured. A higher IC50 goes with weaker potency in that assay.

This experiment addresses KCa3.1 channel (Homo sapiens, UniProt O15554). In words: KCa3.1 patch-clamp (QPatch HTX automated and manual). The experiment is classed as cell-based. As to conditions: block of KCa3.1, patch clamp (Table 2).

The molecule `COC(=O)C1=C(C#N)NC(C)=C(C(=O)OC(C)C)C1c1cccc([N+](=O)[O-])c1` (stereo not shown) yielded an IC50 of 5 µM.
